The text below walks through data of patent US20220315534A1, “BETA ADRENERGIC AGONIST AND METHODS OF USING THE SAME” (Curasen Therapeutics, Inc., priority 2019, published 2022).

The chains behind the UniProt entries cited, without tags or fusion partners.
UniProt P07550, whole entry: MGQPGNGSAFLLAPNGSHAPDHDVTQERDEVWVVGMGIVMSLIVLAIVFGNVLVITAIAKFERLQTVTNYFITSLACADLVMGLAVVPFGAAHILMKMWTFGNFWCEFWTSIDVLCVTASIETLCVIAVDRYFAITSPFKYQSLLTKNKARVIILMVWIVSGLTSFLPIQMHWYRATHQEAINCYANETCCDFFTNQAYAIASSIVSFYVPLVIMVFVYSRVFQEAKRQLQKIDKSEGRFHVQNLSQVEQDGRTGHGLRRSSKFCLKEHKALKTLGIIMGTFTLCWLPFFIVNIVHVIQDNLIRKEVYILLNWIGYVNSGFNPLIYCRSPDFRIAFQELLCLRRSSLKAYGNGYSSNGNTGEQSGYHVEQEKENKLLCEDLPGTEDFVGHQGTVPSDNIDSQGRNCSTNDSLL
UniProt P08588, whole entry: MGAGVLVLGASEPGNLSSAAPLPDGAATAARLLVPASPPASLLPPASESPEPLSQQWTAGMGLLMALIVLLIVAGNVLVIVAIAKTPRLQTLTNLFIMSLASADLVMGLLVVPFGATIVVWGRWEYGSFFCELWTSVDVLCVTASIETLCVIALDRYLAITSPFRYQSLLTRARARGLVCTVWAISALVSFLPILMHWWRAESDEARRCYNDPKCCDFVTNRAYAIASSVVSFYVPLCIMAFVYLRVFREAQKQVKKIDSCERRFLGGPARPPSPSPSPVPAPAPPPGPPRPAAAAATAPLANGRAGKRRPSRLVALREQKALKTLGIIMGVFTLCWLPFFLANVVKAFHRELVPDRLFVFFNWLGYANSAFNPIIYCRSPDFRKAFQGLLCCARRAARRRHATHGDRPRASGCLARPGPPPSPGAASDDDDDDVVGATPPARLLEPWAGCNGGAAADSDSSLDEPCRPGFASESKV

Experiment [1] has as its target T1, β2-adrenergic receptor (B2-AR) (Homo sapiens, UniProt P07550).
T1 construct: expressed in transfected cells
As to the kind of experiment: cAMP Gs dynamic HTRF assay, cells expressing β2-adrenergic receptor. To be noted: CHO-K1 (HitHunter) cells; read-out: Average pEC50 [Receptor subtype: B2-AR; Cell type: CHO-K1 (HitHunter)] (converted). The experiment is classed as cell-based. On the procedure: (§1) cAMP homogeneous time-resolved fluorescence (HTRF): experimental methods. Compound efficacy is determined using the cAMP Gs dynamic HTRF assay (Cisbio, catalog #62AM4PEC) largely following the manufacturer's instructions, also detailed below.
(§2) Standard serial dilution curves are 10-point, 5-fold dilutions starting from a highest concentration of 10 μM. […] Assay plates are centrifuged at 500×g for 10 seconds. Compounds and IBMX are prepared at 2× final dose to compensate for addition of cells.
(§3) Cell preparation: 1× stimulation buffer, washing PBS (Dulbecco's phosphate-buffered saline, —Mg —Ca; Caisson Labs, catalog #PBL01), assay PBS (Dulbecco's phosphate-buffered saline, +Mg, +Ca; Caisson Labs, catalog #PBL02) and Versene (0.02% EDTA disodium salt solution in PBS without calcium or magnesium; Caisson Labs, catalog #EDL01) are pre-warmed to 37° C. […] Cells are harvested using assay PBS, counted manually by hemocytometer or by an automated cell counter, pelleted by centrifugation (200×g, 5 minutes) and resuspended in 37° C. […]
(§4) HTRF reagent addition, reading and data analysis: After 30 minutes of cell stimulation with test compound, the assay plates are centrifuged at 500×g for 10 seconds, and incubation was stopped with the addition of 5 μL cAMP-D2 acceptor, diluted 1:21 in detection and lysis buffer 2 (Cisbio 62CL2FDF) was added to all cells. […]
In general terms: In TR-FRET formats the signal depends on donor and acceptor labels being close together.

Experiment [2] addresses T2, β1-adrenergic receptor (B1-AR) (Homo sapiens, UniProt P08588).
T2 construct: expressed in transfected cells
Nature of the experiment: cAMP Gs dynamic HTRF assay, cells expressing β1-adrenergic receptor. The experiment is classed as cell-based. The settings on record: CHO-K1 (HitHunter) cells; read-out: Average pEC50 [Receptor subtype: B1-AR; Cell type: CHO-K1 (HitHunter)] (converted). Here is the method: as §1, §2, §3, §4

`COc1ccc(C[C@@H](C)NC[C@H](O)c2ccc3c(n2)OCCO3)cc1` [Compound 04-6]: the EC50 in experiment [1] was < 0.01 µM; in experiment [2], 0.01 to 0.1 µM.

Regarding `COc1ccc(C[C@@H](C)NC[C@H](O)c2ccc3c(n2)CCC3)cc1` [Compound 04-8], the EC50 in experiment [1] is < 0.01 µM; in experiment [2], 0.01 to 0.1 µM.
